The list shows a part of the results, in another mix than the full data. Active and inactive are the calls of the source.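 How the source made its calls: active means mean inhibition over replicate wells above about 20% (limit read from the data); inactive means the rest.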
molecular target: Ubiquitin carboxyl-terminal hydrolase isozyme L5 (Homo sapiens) (UniProt Q9Y5K5); test: inhibitors of human UCH37 deubiquitinase, primary screen, biochemical, Ub-AMC cleavage, fluorescence (AID 588478); conditions: purified proteasome/UCH37, Ub-AMC cleavage fluorescence; hits give high values; concentration not given here;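 further: 0% = compound-free wells with enzyme and 100% = wells lacking proteasome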
Summary of the method: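 assay system = human UCH37 enzyme supplied as purified proteasome complex | amount = proteasome at 0.15 nM in the dispensed enzyme solution | schedule = 30 min compound-proteasome preincubation then 25 min substrate reaction, room temperature | measured by = fluorescence, ex 355 nm, em 460 nm | benchmarks = no-proteasome wells (full inhibition) and compound-free wells (no inhibition)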

Chains of the proteins cited; added tags and fusions are not shown.
UniProt Q9Y5K5, whole entry: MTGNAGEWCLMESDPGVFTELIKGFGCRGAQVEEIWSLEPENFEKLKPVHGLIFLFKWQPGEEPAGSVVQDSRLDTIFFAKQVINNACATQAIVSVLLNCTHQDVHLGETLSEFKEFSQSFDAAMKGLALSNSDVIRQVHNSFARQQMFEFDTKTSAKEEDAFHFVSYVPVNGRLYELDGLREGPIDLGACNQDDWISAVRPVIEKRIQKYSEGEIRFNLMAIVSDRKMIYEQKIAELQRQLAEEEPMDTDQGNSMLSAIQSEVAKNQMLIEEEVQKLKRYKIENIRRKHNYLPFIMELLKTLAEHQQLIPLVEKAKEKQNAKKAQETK

Compound	inhibition
COc1ccccc1OP(C)(=O)Nc1ccc(C)cc1 (stereo not drawn)	inactive: -1.68%
Cc1ccc(NP(C)(=O)Oc2ccccc2)c(C)c1 (stereo not drawn)	inactive: 0.0842%
CC(C)c1ccc(OP(=O)(Nc2ccccn2)Oc2ccccc2F)cc1 (stereo not drawn)	inactive: 8.59%
CC(C)(C)c1ccc(OP(C)(=O)Nc2ccc(SC(F)(F)F)cc2)cc1 (stereo not drawn)	inactive: 4.4%
Cc1ccc(OP(=O)(Nc2ccc([N+](=O)[O-])cn2)Oc2ccc(C)cc2)cc1	inactive: 3.78%
Cc1cccc(C)c1OP(C)(N)=O (stereo not drawn)	inactive: 0.0345%
Cc1ccc2nc3c(c(C)c2c1)CC(C(Cl)Cl)S3 (stereo not drawn)	inactive: 1.63%
O=[N+]([O-])c1ccc2c(c1)C=Nc1ccccc1O2	inactive: 5.92%
CCCC(C)(O)C1CC23C=CC1(OC)C1Oc4c(O)ccc5c4[C@@]12CCN(C)[C@@H]3C5 (stereo partly drawn)	inactive: 1.32%
O=[N+]([O-])c1cc([N+](=O)[O-])c(Nc2cccnc2)c([N+](=O)[O-])c1	inactive: 3.57%
O=[As](O)(c1ccc(O)cc1)c1ccccc1O	inactive: 1.07%
C[As](=O)(O)c1cccc(C(=O)O)c1	inactive: 1.92%
COc1cc(C(=O)NCC2(N3CCOCC3)CCCCC2)ccc1OCC(C)C	inactive: 0.609%
CCC(CO)(C(=O)OC1CN2CCC1CC2)c1ccccc1 (stereo not drawn)	inactive: 4.13%
O=P1(N(CCCl)CCCl)Nc2ccccc2N1	inactive: 1.64%
COc1ccc2nc(NP(=O)(c3ccccc3)c3ccccc3)sc2c1	inactive: 2.32%
COc1cc(I)ccc1[As](=O)(O)O	inactive: -0.0878%
Cc1c2c(nc3ccccc13)SC(C(Cl)Cl)C2 (stereo not drawn)	inactive: 4.27%
O=C(OC1CN2CCC1CC2)C12CC3CC(CC(C3)C1)C2 (stereo not drawn)	inactive: 0.711%
Cc1cc(=O)[nH]c(N[N+](=O)[O-])n1	inactive: -0.81%
CCN(CC)CCCOC(=O)C(O)(c1ccccc1)c1ccccc1	inactive: 3.71%
CCOP(=O)(Nc1cccc2ccccc12)OCC	inactive: 0.117%
CP(=O)(Nc1cccc(Br)c1)Oc1ccccc1 (stereo not drawn)	inactive: 1.33%
Cc1cc(C)cc(OP(C)(=O)Nc2ccccn2)c1 (stereo not drawn)	inactive: -0.718%
Cc1ccc(NCCc2c([N+](=O)[O-])cc([N+](=O)[O-])cc2[N+](=O)[O-])cc1	inactive: 3.57%
CCCOP(=S)(Nc1nc(N)cc(=O)[nH]1)OCCC	inactive: 2.07%
Cc1ccc(C)c(NP(C)(=O)Oc2ccccc2)c1 (stereo not drawn)	inactive: 2.15%
O=[As](O)(c1cccc(O)c1)c1cccc(O)c1	inactive: -1.13%
